Assay results as given in EP0497399A1, “Process for evaluating skin irritancy” (THE PROCTER & GAMBLE COMPANY, priority 1991, dated 1992).

Columns and labels:
HuK/F cultures [1] = experiment: MTT assay of cell viability in human skin cell co-cultures on nylon mesh; type: cell-based; settings: concentration w/v giving 50% decrease in MTT dye uptake vs untreated control, 48 hours
HuK/F cultures [2] = experiment: Lactate dehydrogenase release into culture medium (cytotoxicity); type: cell-based, human; settings: 48 hours
Experimental: (§1) For each HuK/F experiment, on a 24 well plate, 1 test material is evaluated at 4 concentrations (in quadruplicate wells per each concentration). In addition, 4 wells serve as medium control, and 4 wells as sodium dodecyl sulfate positive control. For each material evaluated, a dose-range finding study is performed at 0.001, 0.01, 0.1 and 1.0% (w/v) concentrations to determine the concentration eliciting minimum and maximum cytotoxicity in the MTT assay of cell viability. Based on the dose-range finding study, a range of test material concentrations is selected to determine the concentration eliciting minimum and maximum cytotoxicity in the MTT assay of cell viability. Based on the dose-range finding study, concentrations are selected at the maximal cytoxicity level and minimum level and at two 1/3 log intervals between these concentrations (e.g., if the maximum cytoxicity was at 1% with no cytotoxicity or cell death at 0.1% the concentrations evaluated subsequently would be 0.1, 0.3, 0.6 and 1%).
(§2) On treatment day, growth medium is aseptically aspirated, and the cell meshes are treated with two ml of test medium per well. Medium alone served as a no treatment control with 0.01% sodium dodecyl sulfate acting as a positive control (n=4 wells/group). All test plates are incubated at 37 °C and 5% carbon dioxide for 4 to 72 hours. Observations are made (e.g. changes in medium color) during the treatment period.
(§3) • 1. Place one untreated, precut mesh (no cells) into one or more wells to determine the background non-specific binding (NSB) of MTT to mesh and to act as absolute blank. In remaining wells place 1 mesh per well of the fibroblast/keratinocyte co-cultures. Add 2 ml of the assay medium which is supplied with the test kit. (Marrow-Tech supplies a medium). • 2. Remove medium from each well and add 2 ml/well of test agent diluted in assay medium. Refeed untreated control mesh and mesh without cells with assay medium. • 3. Incubate 48 hours at 37 °C in 5%. carbon dioxide atmosphere. • 4. Prepare a solution of 0.5 mg/ml MTT (Sigma Chemical Co. Catalog #M-2128) in assay medium. Centrifuge MTT/medium for 5 minutes at 3000 RPM to pellet undissolved crystals, then prewarm MTT in a 37 °C waterbath. • 5. Remove spent medium. Use 1 ml aliquot to analyze for lactate dehydrogenase and N-acetylglucosaminidase release and glucose; 1 ml can be saved under nitrogen at -70 °C for PGE2 analysis at a later time. • 6. Add 1 ml/well MTT/medium solution. Add medium without MTT to absolute blank well. Incubate cultures at 37 °C, 5% carbon dioxide for 3 hours. • 7. Remove MTT/medium and wash each mesh 2 times with 1 ml Dulbecco's phosphate buffered saline with calcium and magnesium (PBS). About 2-5 minutes each wash. • 8. Remove second PBS wash and add 2 ml isopropanol/well at room temperature 2 hours. This will extract the formazan from mitochondria of cells into the supernatant. (Note: the amount of MTT taken up by a cell culture and subsequently released by solvent extraction is proportional to the number of viable cells within the culture). Remove meshes from test well and stir on shaking vortex mixer. • 9. Transfer 200 microliter aliquots of the blue spent solvent from each well to a 96 well microtiter plate and read absorbance at 540 nm blanking to absolute blank (well not exposed to the MTT). The wells containing the NSB meshes should be subtracted from the test well absorbances before performing calculations below.

HuK/F cultures [3] = experiment: N-acetylglucosaminidase release into culture medium (cytotoxicity); type: cell-based, human; settings: 48 hours
Experimental: as §1, §2, §3

| Substance | MTT-50 Endpoint (Concentration w/v) (HuK/F cultures [1]) | Lactate Dehydrogenase Release (HuK/F cultures [2]; 0.001 % w/v) | Lactate Dehydrogenase Release (HuK/F cultures [2]; 0.003 % w/v) | Lactate Dehydrogenase Release (HuK/F cultures [2]; 0.006 % w/v) | Lactate Dehydrogenase Release (HuK/F cultures [2]; 0.01 % w/v) | N-Acetylglucosaminidase Release (HuK/F cultures [3]; 0.001 % w/v) | N-Acetylglucosaminidase Release (HuK/F cultures [3]; 0.003 % w/v) | N-Acetylglucosaminidase Release (HuK/F cultures [3]; 0.006 % w/v) | N-Acetylglucosaminidase Release (HuK/F cultures [3]; 0.01 % w/v) |
| --- | --- | --- | --- | --- | --- | --- | --- | --- | --- |
| C12.3 Alkane Benzene Sulfonate [C12.3 LAS*H] | 0.0070% | 29.3 U/L | 38.0 U/L | 389.3+ U/L | 1584.0+ U/L | 13.95 U/L | 14.80 U/L | 16.85 U/L | 21.43+ U/L |
| C11.8 Alkane Benzene Sulfonate [C11.8 LAS] | 0.0073% | 54.5 U/L | 62.0 U/L | 371.3+ U/L | 1459.5+ U/L | 11.8 U/L | 12.58 U/L | 13.75 U/L | 17.18+ U/L |
